{"sequences": {"note": "The chains behind the UniProt entries cited, without tags or fusion partners.", "UniProt P08684, whole entry": "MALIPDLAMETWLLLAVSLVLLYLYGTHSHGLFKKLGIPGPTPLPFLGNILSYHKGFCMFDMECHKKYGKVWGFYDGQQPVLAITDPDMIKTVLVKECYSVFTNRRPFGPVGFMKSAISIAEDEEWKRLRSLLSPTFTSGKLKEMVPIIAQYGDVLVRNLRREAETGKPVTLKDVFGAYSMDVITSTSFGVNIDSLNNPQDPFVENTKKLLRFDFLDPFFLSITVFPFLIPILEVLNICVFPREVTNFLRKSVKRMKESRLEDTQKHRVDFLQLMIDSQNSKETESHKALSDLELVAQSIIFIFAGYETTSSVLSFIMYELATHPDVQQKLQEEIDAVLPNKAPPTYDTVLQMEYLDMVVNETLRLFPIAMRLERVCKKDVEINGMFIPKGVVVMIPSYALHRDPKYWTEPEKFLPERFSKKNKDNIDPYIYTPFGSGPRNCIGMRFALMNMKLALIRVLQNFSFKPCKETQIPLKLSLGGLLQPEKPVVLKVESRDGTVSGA"}, "source": "patent US20230414607A1", "about": "“METHODS OF TREATMENT” (BOW RIVER LLC, priority 2017, published 2023)", "key": {"CYP3A4": {"target": "CYP3A4 (Homo sapiens, UniProt P08684)", "conditions": "in vivo; cited from earlier work"}, "[1]": {"assay": "Plasma ranolazine pharmacokinetics before, during and after posaconazole in normal-weight and obese subjects", "format": "in vivo, human", "description": "Procedures. […] Samples were centrifuged, and the plasma was separated and frozen at −70° C. until the time of assay of plasma ranolazine concentrations. On study day 2, subjects received posaconazole (300 mg delayed-release tablet twice a day), and on the mornings of days 3-15, subjects received posaconazole (300 mg delayed-release tablet daily). Because posaconazole is to be taken with food,^6 subjects were fed a continental breakfast in the clinical research unit after receiving posaconazole and before discharge from the unit. […] Samples were centrifuged, and the plasma was separated and frozen at −70° C. until the time of assay of plasma posaconazole concentrations. […] Plasma samples were extracted by methyl tertiary butyl ether, centrifuged, and the upper layer was transferred to plastic injection vials with MeOH/water (50:50). An aliquot of the sample was then injected onto a high-pressure liquid chromatography with tandem mass spectrometry triple quadrupole mass spectrometer (Sciex API-5500). The analytical column was a Unison CK-218, 3 μm particle size HPLC column (50×2 mm) from Imtakt USA (Portland, OR). […] The m/z transitions monitored were 428.3→279.2 for ranolazine and 431.3→282.2 for the internal standard. […] Pharmacokinetic and Statistical Methods. For each ranolazine trial in each subject, the terminal log-linear phase of the plasma concentration curve was identified visually, and the terminal rate constant (β) was determined by log-linear regression analysis. This was used to calculate the half-life (t1/2). The area under the plasma concentration curve from time 0 until the last nonzero point was determined by the linear trapezoidal method. To this was added the residual area, calculated as the final nonzero concentration divided by β, yielding the total area under the plasma concentration curve extrapolated to infinity (AUC). Also tabulated was the observed maximum plasma concentration (Cmax). Variables were aggregated as arithmetic mean and SD."}, "[2]": {"assay": "QTcF from 12-lead safety ECG readings", "format": "in vivo, human", "conditions": "mean ± SD", "excerpt": "Potential study participants underwent screening and evaluation within 30 days of study initiation. Procedures included medical and psychiatric history, physical examination, electrocardiogram (ECG), hematologic and biochemical screening, and urine testing for drugs of abuse. All study participants were healthy active nonsmoking adults with no history of significant medical or psychiatric disease and taking no prescription medications. Obese subjects were free of metabolic or other complications of obesity. […] Subjects were also administered 12-lead ECGs in triplicate on study days 1 and 15 before and 4 hours after the ranolazine dose as well as before discharge on day 30.\nQTcF values were determined electronically from 12-lead ECG readings taken for safety purposes. […] Differences between baseline and study days 1, 15, and 30 were evaluated by Student's t-test for independent groups."}, "CYP3A": {"test_system": "CYP3A", "assay": "Example 3: ranolazine AUC during and after posaconazole (drug-drug interaction)", "conditions": "normal-weight and obese subjects"}, "[3]": {"conditions": "cited from earlier work"}, "[4]": {"conditions": "Day 18/Day 1, normal-weight subjects"}, "[5]": {"conditions": "Day 22/Day 1, normal-weight subjects"}, "[6]": {"conditions": "Day 25/Day 1, normal-weight subjects"}, "[7]": {"conditions": "Day 29/Day 1, normal-weight subjects"}}, "note": "Where “and” joins values, the source holds several entries; their conditions need not be identical. Equal values may be shown once. Read-outs that look alike come from different tables or passages of the source.", "data": [{"molecule": "C[C@@H](Oc1cc(-c2cnn(C3CCNCC3)c2)cnc1N)c1c(Cl)ccc(F)c1Cl", "note": "[crizotinib]", "values": [{"measurement": "AUC co-administration levels, Percent of baseline", "setting": "CYP3A4", "value": 157, "unit": "%"}, {"measurement": "Cmax co-administration levels, Percent of baseline", "setting": "CYP3A4", "value": 133, "unit": "%"}]}, {"molecule": "COc1ccccc1OCC(O)CN1CCN(CC(=O)Nc2c(C)cccc2C)CC1", "note": "(centres unmarked) [ranolazine]", "values": [{"measurement": "Geometric mean ratio (90% CI) of plasma ranolazine AUC0-inf", "setting": "[1]; [4]", "value": "2.34 (1.70-3.22)"}, {"measurement": "Geometric mean ratio (90% CI) of plasma ranolazine Cmax", "setting": "[1]; [4]", "value": "1.82 (1.38-2.42)"}, {"measurement": "Geometric mean ratio (90% CI) of plasma ranolazine AUC0-inf", "setting": "[1]; Day 18/Day 1, obese subjects", "value": "2.25 (1.41-3.58)"}, {"measurement": "Geometric mean ratio (90% CI) of plasma ranolazine Cmax", "setting": "[1]; Day 18/Day 1, obese subjects", "value": "1.97 (1.42-2.80)"}, {"measurement": "Geometric mean ratio (90% CI) of plasma ranolazine AUC0-inf", "setting": "[1]; [5]", "value": "1.88 (1.38-2.54)"}, {"measurement": "Geometric mean ratio (90% CI) of plasma ranolazine Cmax", "setting": "[1]; [5]", "value": "1.50 (1.13-1.99)"}, {"measurement": "Geometric mean ratio (90% CI) of plasma ranolazine AUC0-inf", "setting": "[1]; Day 22/Day 1, obese subjects", "value": "1.79 (1.11-2.88)"}, {"measurement": "Geometric mean ratio (90% CI) of plasma ranolazine Cmax", "setting": "[1]; Day 22/Day 1, obese subjects", "value": "1.90 (1.35-2.54)"}, {"measurement": "Geometric mean ratio (90% CI) of plasma ranolazine AUC0-inf", "setting": "[1]; [6]", "value": "1.30 (0.97-1.76)"}, {"measurement": "Geometric mean ratio (90% CI) of plasma ranolazine Cmax", "setting": "[1]; [6]", "value": "1.36 (1.00-1.85)"}, {"measurement": "Geometric mean ratio (90% CI) of plasma ranolazine AUC0-inf", "setting": "[1]; Day 25/Day 1, obese subjects", "value": "1.57 (0.99-2.50)"}, {"measurement": "Geometric mean ratio (90% CI) of plasma ranolazine Cmax", "setting": "[1]; Day 25/Day 1, obese subjects", "value": "1.72 (1.20-2.47)"}, {"measurement": "Geometric mean ratio (90% CI) of plasma ranolazine AUC0-inf", "setting": "[1]; [7]", "value": "1.22 (0.92-1.62)"}, {"measurement": "Geometric mean ratio (90% CI) of plasma ranolazine Cmax", "setting": "[1]; [7]", "value": "1.16 (0.89-1.53)"}, {"measurement": "Geometric mean ratio (90% CI) of plasma ranolazine AUC0-inf", "setting": "[1]; Day 29/Day 1, obese subjects", "value": "1.21 (0.79-1.85)"}, {"measurement": "Geometric mean ratio (90% CI) of plasma ranolazine Cmax", "setting": "[1]; Day 29/Day 1, obese subjects", "value": "1.30 (0.94-1.82)"}, {"measurement": "QTcF values relative to baseline", "setting": "[2]; Day 1, 4 h post-dose of ranolazine 500 mg, normal-weight subjects", "value": "9.85 ± 12", "unit": "ms"}, {"measurement": "QTcF values relative to baseline", "setting": "[2]; Day 1, 4 h post-dose of ranolazine 500 mg, obese subjects", "value": "3.83 ± 11", "unit": "ms"}, {"measurement": "QTcF values relative to baseline", "setting": "[2]; Day 1, predose, normal-weight subjects", "value": "2.14 ± 10", "unit": "ms"}, {"measurement": "QTcF values relative to baseline", "setting": "[2]; Day 1, predose, obese subjects", "value": "7.50 ± 9.2", "unit": "ms"}, {"measurement": "QTcF values relative to baseline", "setting": "[2]; Day 15, 4 h post-dose (ranolazine with posaconazole), normal-weight subjects", "value": "4.36 ± 16", "unit": "ms"}, {"measurement": "QTcF values relative to baseline", "setting": "[2]; Day 15, 4 h post-dose (ranolazine with posaconazole), obese subjects", "value": "-3.33 ± 13", "unit": "ms"}, {"measurement": "QTcF values relative to baseline", "setting": "[2]; Day 15, predose (during posaconazole), normal-weight subjects", "value": "6.29 ± 16", "unit": "ms"}, {"measurement": "QTcF values relative to baseline", "setting": "[2]; Day 15, predose (during posaconazole), obese subjects", "value": "2.64 ± 11", "unit": "ms"}, {"measurement": "QTcF values relative to baseline", "setting": "[2]; Day 30 (before discharge), normal-weight subjects who completed the study", "value": "12.9 ± 16 ms and 12.9 ms"}, {"measurement": "QTcF values relative to baseline", "setting": "[2]; Day 30 (before discharge), obese subjects who completed the study", "value": "2.6 ± 11 ms and 2.6 ms and 2.58 ± 11 ms"}, {"measurement": "time AUC remained significantly elevated above baseline after stopping posaconazole", "setting": "CYP3A", "value": "7 to 14", "unit": "days"}]}, {"molecule": "trastuzumab deruxtecan", "values": [{"measurement": "Baseline AUC (% CV), AUClast", "setting": "[3]; 21 day cycle at 0.8 mg/kg", "value": "51.7 (13.1) ug*day/mL"}, {"measurement": "Baseline AUC (% CV), AUClast", "setting": "[3]; 21 day cycle at 3.2 mg/kg", "value": "325 (142) ug*day/mL"}, {"measurement": "Baseline AUC (% CV), AUClast", "setting": "[3]; 21 day cycle at 8.0 mg/kg", "value": "914 (235) ug*day/mL"}]}]}
